From patent publication US11254667B2 (priority 2016, dated 2022)

Experiments:
[1] = tested on: MA9-FLT3-ITD cells; test: cells; format: cell-based
[2] = tested on: MA9-FLT3-ITD cells; test: AnnexinV viability and recovery of MA9-FLT3-ITD cells; format: cell-based, human; settings: 72 hours treatment, washed, replated with cytokines
[3] = Homo sapiens; average of three runs against MLL-AF9/FLT3-ITD cells, Cell Titer Glo; read-out: IC50
[4] = Homo sapiens; read-out: FLT3 ITD IC50
[5] = Homo sapiens, MLL-AF9, average of three runs against MLL-AF9/FLT3-ITD cells, Cell Titer Glo
[6] = Homo sapiens, read-out: FLT3 ITD IC50

Row | SMILES | IC50 [1, 3] [µM] | IC50 [1, 4] [µM] | IC50 [1, 5] [µM] | IC50 [1, 6] [µM] | further results
1 | c1cc(NC2CNC2)nc(-c2cnc3ccccn23)c1 [Compound I-12, N-(azetidin-3-yl)-6-(imidazo[1,2-a]pyridin-3-yl)pyridin-2-amine] | 0.26 | 0.26 |  |  | 
2 | Clc1ccc2ncc(-c3cccc(NC4CNC4)n3)n2c1 [Compound I-15, N-(azetidin-3-yl)-6-(6-chloroimidazo[1,2-a]pyridin-3-yl)pyridin-2-amine] | 0.045 |  |  |  | 
3 | Clc1ccc2ncc(-c3cccc(NC4CCNC4)n3)n2c1 (stereo not drawn) [Compound I-16, 6-(6-chloroimidazo[1,2-a]pyridin-3-yl)-N-(pyrrolidin-3-yl)pyridin-2-amine] | 0.03 | 0.03 |  |  | fold improvement of potency compared to compound I-15 ([1]; MA9-FLT3-ITD cells): ~2 fold
4 | COc1cc2ncc(-c3cccc(NC4CCNC4)n3)n2cc1-c1cn[nH]c1 (stereo not drawn) [Compound I-20, 6-(7-methoxy-6-(1H-pyrazol-4-yl)imidazo[1,2-a]pyridin-3-yl)-N-(pyrrolidin-3-yl)pyridin-2-amine] |  |  | 0.005 | 0.04 | recovery of cell viability after removal of compound [2]: remained apoptotic
5 | COc1cc2ncc(-c3cccc(NC4CCNC4)n3)n2cc1Cl (stereo not drawn) [Compound I-21, 6-(6-chloro-7-methoxyimidazo[1,2-a]pyridin-3-yl)-N-(pyrrolidin-3-yl)pyridin-2-amine] | 0.006 |  |  |  | fold improvement of potency compared to compound I-15 ([1]; MA9-FLT3-ITD cells): ~8 fold
6 | COc1cc2ncc(-c3cccc(NC4CCNC4)n3)n2cc1-c1ccncc1 (stereo not drawn) [Compound I-23, 6-(7-methoxy-6-(pyridin-4-yl)imidazo[1,2-a]pyridin-3-yl)-N-(pyrrolidin-3-yl)pyridin-2-amine] |  |  | 0.015 | 0.015 | 
7 | COc1cc2ncc(-c3cccc(NC4CCNC4)n3)n2cc1-c1c(C)n[nH]c1C (stereo not drawn) [Compound I-25, 6-(6-(3,5-dimethyl-1H-pyrazol-4-yl)-7-methoxyimidazo[1,2-a]pyridin-3-yl)-N-(pyrrolidin-3-yl)pyridin-2-amine] |  |  | 0.38 | 0.38 | 
8 | COc1cc2ncc(-c3cccc(NC4CCNC4)n3)n2cc1-c1cnn(CCN2CCOCC2)c1 (stereo not drawn) [Compound I-26] |  |  |  | 0.02 | 
9 | COc1cc2ncc(-c3cccc(NC4CCNC4)n3)n2cc1-c1cc[nH]c1 (stereo not drawn) [Compound I-27, 6-(7-methoxy-6-(1H-pyrrol-3-yl)imidazo[1,2-a]pyridin-3-yl)-N-(pyrrolidin-3-yl)pyridin-2-amine] |  |  | 0.03 | 0.03 | 
10 | COc1cc2ncc(-c3cccc(NC4CCNC4)n3)n2cc1-c1c(C)noc1C (stereo not drawn) [Compound I-28, 6-(6-(3,5-dimethylisoxazol-4-yl)-7-methoxyimidazo[1,2-a]pyridin-3-yl)-N-(pyrrolidin-3-yl)pyridin-2-amine] |  |  | 0.14 | 0.14 | 
11 | COc1cc2ncc(-c3cccc(NC4CCCNC4)n3)n2cc1-c1cn[nH]c1 (stereo not drawn) [Compound I-29, 6-(7-methoxy-6-(1H-pyrazol-4-yl)imidazo[1,2-a]pyridin-3-yl)-N-(piperidin-3-yl)pyridin-2-amine] |  |  | 0.015 | 0.015 | fold decrease of potency compared to compound I-20 ([1]; MA9-FLT3-ITD cells): 3 fold
12 | COc1cc2ncc(-c3cccc(N(C)C4CCNC4)n3)n2cc1-c1cn[nH]c1 (stereo not drawn) [Compound I-31, 6-(7-methoxy-6-(1H-pyrazol-4-yl)imidazo[1,2-a]pyridin-3-yl)-N-methyl-N-(pyrrolidin-3-yl)pyridin-2-amine] |  |  | 0.298 | 0.298 | 
13 | COc1cc2ncc(-c3cccc(OC4CCNC4)n3)n2cc1-c1cn[nH]c1 (stereo not drawn) [Compound I-32, 7-methoxy-6-(1H-pyrazol-4-yl)-3-(6-(pyrrolidin-3-yloxy)pyridin-2-yl)imidazo[1,2-a]pyri-dine] |  |  | 0.166 | 0.166 | 
14 | COc1cc2ncc(-c3nc(NC4CCNC4)c(F)cc3F)n2cc1-c1cn[nH]c1 (stereo not drawn) [Compound I-33, 3,5-difluoro-6-(7-methoxy-6-(1H-pyrazol-4-yl)imidazo[1,2-a]pyridin-3-yl)-N-(pyrrolidin-3-yl)pyridin-2-amine] |  |  | 0.053 | 0.053 | fold decrease of potency compared to compound I-20 ([1]; MA9-FLT3-ITD cells): 10 fold
15 | Clc1cn2c(-c3cccc(NC4CCNC4)n3)cnc2cc1OCCN1CCOCC1 (stereo not drawn) [Compound I-40] |  |  |  | 0.008 | 
16 | c1cc(NC2CCNC2)nc(-c2cnc3cc(OCCN4CCOCC4)c(-c4cn[nH]c4)cn23)c1 (stereo not drawn) [Compound I-41, 6-(7-(2-morpholinoethoxy)-6-(1H-pyrazol-4-yl)imidazo[1,2-a]pyridin-3-yl)-N-(pyrrolidin-3-yl)pyridin-2-amine] |  |  | 0.068 | 0.068 | 
17 | COc1cc(Cl)cn2c(-c3cccc(NC4CNC4)n3)cnc12 [Compound I-42, N-(azetidin-3-yl)-6-(6-chloro-8-methoxyimidazo[1,2-a]pyridin-3-yl)pyridin-2-amine] |  |  | 0.953 | 0.953 | 
18 | Fc1cc(F)c(-c2cnc3ccc(Cl)cn23)nc1NC1CNC1 [Compound I-47] |  |  |  | 0.157 | 
19 | COc1ccn2c(-c3cccc(NC4CNC4)n3)cnc2c1 [Compound I-50, N-(azetidin-3-yl)-6-(7-methoxyimidazo[1,2-a]pyridin-3-yl)pyridin-2-amine] | 0.12 | 0.12 |  |  | 
20 | c1cc(NC2CCNC2)nc(-c2cnc3ccc(-c4cn[nH]c4)cn23)c1 (stereo not drawn) [Compound I-54, 6-(6-(1H-pyrazol-4-yl)imidazo[1,2-a]pyridin-3-yl)-N-(pyrrolidin-3-yl)pyridin-2-amine] | 0.034 |  |  |  | 
21 | Cc1cc(NC2CNC2)nc(-c2cnc3ccc(Cl)cn23)c1 [Compound I-55, N-(azetidin-3-yl)-6-(6-chloroimidazo[1,2-a]pyridin-3-yl)-4-methylpyridin-2-amine] | 0.291 | 0.291 |  |  | 
22 | Fc1cc(F)c(-c2cnc3ccc(Cl)cn23)nc1NC1CNC1 [Compound I-56, N-(azetidin-3-yl)-6-(6-chloroimidazo[1,2-a]pyridin-3-yl)-3,5-difluoropyridin-2-amine] |  |  | 0.157 |  | IC50 ([1]; read-out: FLT3 ITD IC50): 0.095 µM
23 | N#Cc1ccc2ncc(-c3cccc(NC4CNC4)n3)n2c1 [Compound I-60, 3-(6-(azetidin-3-ylamino)pyridin-2-yl)imidazo[1,2-a]pyridine-6-carbonitrile] | 0.313 | 0.313 |  |  | 
24 | Cc1ccn2c(-c3cccc(NC4CNC4)n3)cnc2c1 [Compound I-61, N-(azetidin-3-yl)-6-(7-methylimidazo[1,2-a]pyridin-3-yl)pyridin-2-amine] | 0.442 | 0.442 |  |  | 
25 | Clc1ccn2c(-c3cccc(NC4CNC4)n3)cnc2c1 [Compound I-63, N-(azetidin-3-yl)-6-(7-chloroimidazo[1,2-a]pyridin-3-yl)pyridin-2-amine] | 0.973 | 0.973 |  |  | 
26 | CCN1CCN(c2ccc3ncc(-c4cccc(NC5CNC5)n4)n3c2)CC1 [Compound I-64] |  | 2 |  |  | 
27 | COc1cc(NC2CNC2)nc(-c2cnc3ccc(Cl)cn23)c1 [Compound I-67, N-(azetidin-3-yl)-6-(6-chloroimidazo[1,2-a]pyridin-3-yl)-4-methoxypyridin-2-amine] | 0.892 | 0.892 |  |  | 
28 | C#Cc1cn2c(-c3cccc(NC4CCNC4)n3)cnc2cc1OC (stereo not drawn) [Compound I-68, 6-(6-ethynyl-7-methoxyimidazo[1,2-a]pyridin-3-yl)-N-(pyrrolidin-3-yl)pyridin-2-amine] | 0.015 | 0.015 |  |  | 

Read-outs that look alike come from different tables or passages of the source.
